These results are taken from BindingDB's records for doi:10.1021/acs.biochem.5b01128 (University College London, 2016).

The structures appear in SMILES notation.

The target of the experiment is Dual specificity tyrosine-phosphorylation-regulated kinase 1A (Homo sapiens, UniProt Q13627). Nature of the experiment: Kinase Inhibition Assay. The method, then:
For kinase inhibition assays, the final concentrations of the enzymes were 15, 14.5, 14.5, and 8.8 nM for CLK1, CLK2, CLK3, and Dyrk1A (Invitrogen, catalog no. PV3785), respectively. The compound concentrations ranged from 15503 to 121 nM and from 1550 to 12 nM. The RS domainderived peptide ([…]) (Anaspec, catalog no. 61722) for CLK1 and CLK3, Dyrktide ([…]) (Anaspec, catalog no. 62698) for Dyrk1A, and S6K peptide for CLK2 were used as substrates at a concentration of 5 μM.

For `O=C1N=C(NCc2cccs2)S/C1=C/c1ccc2ncccc2c1` [NR9], the midpoint of inhibition, the IC50, lay at 596 nM.
